From US12281308B2, “Inhibition of protein kinases to treat Friedreich ataxia” (University of Massachusetts, priority 2018, dated 2025)
Like-named read-outs stand apart in the source and are kept apart here.

Legend:
Format in all cases: cell-based, human
FRDA neurons = assay: MitoSOX staining and flow cytometry (mitochondrial ROS) in FRDA neurons; conditions: fasudil 1 μM, ripasudil 0.5 μM, Y27632 0.5 μM vs DMSO
From the text: (§1) FIGS. 3A-D. Inhibition of protein kinase FXN-RFs can ameliorate characteristic mitochondrial defects of FRDA post-mitotic neurons and cardiomyocytes. (A, B) Quantification of flow cytometry analysis of normal and FRDA neurons (A) or normal and FRDA CMCs (B) expressing an FXN-RF shRNA and stained with MitoSOX. (C, D) Analysis of the mitochondrial oxygen consumption rate in normal and FRDA neurons (C) or normal and FRDA CMCs (D) expressing an FXN-RF shRNA. […] (C, D) Analysis of the mitochondrial oxygen consumption rate in FRDA neurons (C) or FRDA CMCs (D) treated with a small molecule ROCK1/2 inhibitor. (E, F) Immunoblot analysis showing levels of mitochondrial proteins ACO and ISCU in FRDA neurons (E) or FRDA CMCs (F) treated with fasudil (1 μM), KD025 (1 μM), or ripasudil (0.5 μM). […] We next asked whether FXN-RF inhibition could ameliorate two characteristic mitochondrial defects of FRDA neurons and cardiomyocytes: increased levels of reactive oxygen species (ROS) and decreased oxygen consumption. In the first set of experiments, FRDA neurons and cardiomyocytes expressing a protein kinase FXN-RF shRNA were stained with MitoSOX (an indicator of mitochondrial superoxide levels and mitochondrial ROS production) followed by flow cytometry analysis. As expected. FRDA neurons and cardiomyocytes had increased levels of mitochondrial ROS production compared to normal neurons and cardiomyocytes (FIGS. 3A, B). […] In the second set of experiments, we measured mitochondrial oxygen consumption rate, which is related to ATP production, using an Agilent Seahorse XF Analyzer. As expected, mitochondrial oxygen consumption rate in FRDA neurons and cardiomyocytes was ˜60% of the level observed in normal neurons and cardiomyocytes (FIGS. 3C, D).

frataxin [1] = assay: Immunoblot analysis of frataxin levels in FRDA cardiomyocytes; conditions: fasudil 1 μM, ripasudil 0.5 μM, Y27632 0.5 μM vs DMSO
From the text: (§2) FIGS. 2A-D. The protein kinase FXN-RFs also mediate epigenetic repression of the mutant FXN gene in post-mitotic FRDA neurons and cardiomyocytes. (A, B) qRT-PCR analysis monitoring FXN transcription (A) and immunoblot analysis showing frataxin levels (B) in FRDA neurons expressing an shRNA targeting a protein kinase FXN-RF. (C, D) qRT-PCR analysis monitoring FXN transcription (C) and immunoblot analysis showing frataxin levels (D) in FRDA cardiomyocytes (CMCs) expressing an shRNA targeting a protein kinase FXN-RF. […] TPM, transcripts per million. […] To derive FRDA cardiomyocytes, FRDA (GM23404) iPSCs were cultured for two days with chemically defined medium (“CDM3”, consisting of RPMI 1640 medium, albumin and ascorbic acid) supplemented with the GSK3ß inhibitor and Wnt signaling activator CHIR99021, then cultured for two days with CDM3 supplemented with the Wnt inhibitor Wnt-C59, and finally cultured with CDM3 alone, as previously described (Burridge et al., PLOS One, 2011, 6 (4):e18293. Ten days post-differentiation, beating colonies were dissociated and re-seeded to derive single cardiomyocytes: for convenience, we refer to these cells as FRDA cardiomyocytes.

mutant FXN gene [2] = conditions: FRDA cardiomyocytes; fasudil 1 μM, ripasudil 0.5 μM, Y27632 0.5 μM vs DMSO
From the text: as §2

FRDA cardiomyocytes = assay: MitoSOX staining and flow cytometry (mitochondrial ROS) in FRDA cardiomyocytes; conditions: fasudil 1 μM, ripasudil 0.5 μM, Y27632 0.5 μM vs DMSO
From the text: as §1

frataxin [3] = assay: Immunoblot analysis of frataxin levels in FRDA neurons; conditions: fasudil 1 μM, ripasudil 0.5 μM, Y27632 0.5 μM vs DMSO
From the text: (§3) FIGS. 2A-D. The protein kinase FXN-RFs also mediate epigenetic repression of the mutant FXN gene in post-mitotic FRDA neurons and cardiomyocytes. (A, B) qRT-PCR analysis monitoring FXN transcription (A) and immunoblot analysis showing frataxin levels (B) in FRDA neurons expressing an shRNA targeting a protein kinase FXN-RF. (C, D) qRT-PCR analysis monitoring FXN transcription (C) and immunoblot analysis showing frataxin levels (D) in FRDA cardiomyocytes (CMCs) expressing an shRNA targeting a protein kinase FXN-RF. […] TPM, transcripts per million. […] We next asked whether inhibition of the 8 protein kinase FXN-RFs would also upregulate transcription of the mutant FXN gene in post-mitotic neurons and cardiomyocytes, the cell types most relevant to FRDA. To derive post-mitotic FRDA neurons, FRDA (GM23404) iPSCs were stably transduced with lentiviral vectors expressing Neurogenin-1 and Neurogenin-2 to promote neuronal differentiation, according to published methods (Busskamp et al., Mol Syst Biol, 2014, 10:760); for convenience, we refer to these cells as FRDA neurons.

mutant FXN gene [4] = conditions: FRDA neurons; fasudil 1 μM, ripasudil 0.5 μM, Y27632 0.5 μM vs DMSO
From the text: as §3

## C[C@@H](N)[C@H]1CC[C@H](C(=O)Nc2ccncc2)CC1.Cl.Cl [Y27632, (+)-(R)-trans-4-(1-aminoethyl)-N-(4-pyridyl)cyclohexanecarboxamide dihydrochloride]
FRDA neurons
  mitochondrial ROS production (MitoSOX): decreased mitochondrial ROS production
Frataxin [1]
  frataxin protein levels: restored FXN mRNA and frataxin protein to normal levels
Mutant FXN gene [2]
  transcription of the mutant FXN gene (FXN mRNA): upregulated transcription of the mutant FXN gene
FRDA cardiomyocytes
  mitochondrial ROS production (MitoSOX): decreased mitochondrial ROS production
Frataxin [3]
  frataxin protein levels: restored FXN mRNA and frataxin protein to normal levels
Mutant FXN gene [4]
  transcription of the mutant FXN gene (FXN mRNA): upregulated transcription of the mutant FXN gene

## O=S(=O)(c1cccc2cnccc12)N1CCCNCC1 [fasudil, 1-(5-isoquinolinesulfonyl)-homopiperazine]
FRDA neurons
  mitochondrial ROS production (MitoSOX): decreased mitochondrial ROS production
Frataxin [1]
  frataxin protein levels: restored FXN mRNA and frataxin protein to normal levels
Mutant FXN gene [2]
  transcription of the mutant FXN gene (FXN mRNA): upregulated transcription of the mutant FXN gene
FRDA cardiomyocytes
  mitochondrial ROS production (MitoSOX): decreased mitochondrial ROS production
Frataxin [3]
  frataxin protein levels: restored FXN mRNA and frataxin protein to normal levels
Mutant FXN gene [4]
  transcription of the mutant FXN gene (FXN mRNA): upregulated transcription of the mutant FXN gene

## C[C@H]1CNCCCN1S(=O)(=O)c1cccc2cncc(F)c12 [ripasudil, 4-fluoro-5-[[(2S)-2-methyl-1,4-diazepan-1-yl]sulfonyl]isoquinoline]
FRDA neurons
  mitochondrial ROS production (MitoSOX): decreased mitochondrial ROS production
Frataxin [1]
  frataxin protein levels: restored FXN mRNA and frataxin protein to normal levels
Mutant FXN gene [2]
  transcription of the mutant FXN gene (FXN mRNA): upregulated transcription of the mutant FXN gene
FRDA cardiomyocytes
  mitochondrial ROS production (MitoSOX): decreased mitochondrial ROS production
Frataxin [3]
  frataxin protein levels: restored FXN mRNA and frataxin protein to normal levels
Mutant FXN gene [4]
  transcription of the mutant FXN gene (FXN mRNA): upregulated transcription of the mutant FXN gene
